This is an account of results in patent US20250326715A1, “NOVEL MAIN PROTEASE INHIBITORS, AND COMPOSITIONS AND METHODS THEREOF” (University of Massachusetts, priority 2023, published 2025).

By UniProt entry, the sequences of proteins in these tests, tags left out. Residues count along the entry.
UniProt P07711, 114-333: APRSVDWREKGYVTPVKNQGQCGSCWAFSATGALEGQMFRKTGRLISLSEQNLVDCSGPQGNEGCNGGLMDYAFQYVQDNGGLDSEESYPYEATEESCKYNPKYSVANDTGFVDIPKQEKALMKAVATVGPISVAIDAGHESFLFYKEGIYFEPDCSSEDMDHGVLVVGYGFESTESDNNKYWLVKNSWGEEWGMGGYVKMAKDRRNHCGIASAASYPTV

Assay [1] deals with T1, Cathepsin L (Homo sapiens, UniProt P07711).
T1 construct: purchased Abcam ab197012
Nature of the assay: Cathepsin L inhibition assay kit (Abcam), IC50 and kinact/KI. The assay is classed as biochemical. The procedure:
Determination of IC50 and kinact/KI values for Cathepsins L and B
IC50 and kinact/KI values of the inhibitors were determined using commercially available inhibition assay kits (Abcam) by following the manufacturer's protocol. […] The observed rates (kobs) were determined by fitting to a single-phase association equation. The resulting kobs values were plotted against the concentrations of inhibitor and the data were fit to equation 2 to derive the kinact/KI values,
using GraphPad Prism, where kinact is the maximal rate of inactivation, KI is the concentration of inhibitor that affords half-maximal inactivation, and [I] is the concentration of inhibitor. When kobs with [I] varied linearly, kinact/KI was determined from the slope of the line. All the experiments were performed in triplicate. […] Crystallization of M^Pro in Complex with Inhibitors

Assay [2] deals with SARS-CoV-2 M^Pro (Severe acute respiratory syndrome coronavirus 2, UniProt P0DTD1). The assay is described as follows: Determination of kinact/KI values for SARS-CoV-2 M^Pro (time- and concentration-dependent inactivation). Type of assay: biochemical. As to conditions: read-out: M^Pro kinact/KI. The procedure: where νo is the initial velocity of uninhibited reaction and νi is the initial velocity in the presence of inhibitor. All measurements were done in triplicate. Determination of kinact/KI values for SARS-CoV-2 M^Pro
Time- and concentration-dependent inactivation assays were done by following a similar protocol as described for Ki determination. M^Pro (12.5 nM final) was treated with the peptide-substrate (30 μM final) and test inhibitor (0-80 μM for D-FF(R/Cit)-(CMK/CMKyne); 0-1.25 mM for SM136-145) at time=0 to initiate inactivation process. The total volume of the assay mixture was 50 μL. Time-dependent increase in fluorescence was monitored at 485 nm with excitation at 340 nm for a period of 20-25 min. The observed rates (kobs) for the peptide cleavage in both the presence and absence of inhibitor were determined by fitting to a single-phase association equation. The resulting kobs values were plotted against the concentrations of inhibitor and linear fits were used to derive the slope that afforded the kinact/KI values. All measurements were done in triplicate.

For `CCOC(=O)C=CC(CC1CCNC1=O)NC(=O)C(Cc1ccccc1)NC(=O)C(N)Cc1ccccc1` (stereo not drawn) [SM141], the “potency for CatL inhibition relative to M^Pro (IC50 and kinact/KI)” value in assay [1] amounted to 10 fold. The figures for the kinact/KI in assay [1] (read-out: Cathepsin L kinact/KI) and in assay [2] were 3170 M⁻¹ s⁻¹ and 333 M⁻¹ s⁻¹, respectively.
